The record followed here is ChEMBL document CHEMBL1141625, “Potent, selective MCH-1 receptor antagonists” (Bioorg Med Chem Lett, 2008).

The target of this assay is Mu-type opioid receptor (Homo sapiens, UniProt P35372). Description: Agonist activity at mu opioid receptor.

Consider `CO[C@@H]1CN(C[C@H]2Cc3ccc(Br)cc3C2)CC[C@H]1n1c(C(C)(C)O)nc2cc(C)ccc21`, for which a half-maximal effect (EC50) was put at 24.9 µM.
